Results from patent publication US20170145104A1 (Bristol-Myers Squibb, published 2017).

Tests used:
[1] = target: T1, cynomolgus GITR on activated cynomolgus T cells (cynomolgus, UniProt Q9Y5U5 26-241 (human entry)); test: binding to activated cyno CD4+ T cells (anti-CD3/anti-CD28)
T1 construct: also called cyno GITR
T1 chain: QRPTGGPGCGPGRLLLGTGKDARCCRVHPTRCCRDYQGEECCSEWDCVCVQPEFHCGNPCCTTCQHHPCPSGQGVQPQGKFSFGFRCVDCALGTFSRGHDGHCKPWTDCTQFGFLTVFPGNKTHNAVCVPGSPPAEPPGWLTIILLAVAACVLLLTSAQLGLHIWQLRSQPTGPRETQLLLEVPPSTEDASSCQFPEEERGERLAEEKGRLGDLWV

[2] = target: T1, cynomolgus GITR on activated cynomolgus …; test: binding to activated cyno CD8+ T cells (anti-CD3/anti-CD28)
[3] = target: T2, human GITR, membrane bound (on activated human T cells and on 3A9-hGITR cells) (human, UniProt Q9Y5U5 26-241); test: binding to activated human CD4+ T cells (anti-CD3/anti-CD28)
T2 construct: whole, on cells; the cell is named under assay; also called huGITR; TNFRSF18
T2 sequence (looked up): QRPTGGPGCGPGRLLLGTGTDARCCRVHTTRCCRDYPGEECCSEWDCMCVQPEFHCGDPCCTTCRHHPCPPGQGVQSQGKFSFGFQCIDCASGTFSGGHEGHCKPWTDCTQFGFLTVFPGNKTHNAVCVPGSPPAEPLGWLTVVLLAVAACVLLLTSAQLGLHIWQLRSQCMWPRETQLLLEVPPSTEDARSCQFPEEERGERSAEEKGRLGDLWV

[4] = target: T2, human GITR, membrane bound (on …); test: binding to activated human CD8+ T cells (anti-CD3/anti-CD28)
[5] = target: T2, human GITR, membrane bound (on …); test: Scatchard analysis, 125I-labelled antibody on 3A9-huGITR cells
[6] = target: T2, human GITR, membrane bound (on …); test: Scatchard analysis, 125I-labelled antibody on 3 day stimulated human CD4+ T cells
[7] = target: T2, human GITR, membrane bound (on …); test: Scatchard analysis, 125I-labelled antibody on 4 day stimulated human CD4+ T cells

EC50 [1]: 0.86 nM | EC50 [2]: 0.74 nM | EC50 [3]: 0.67 nM | EC50 [4]: 0.65 nM | Kd [5]: 0.5 nM | Kd [6]: 0.7 nM | Kd [7]: 0.87 nM
B1: 28F3.IgG1.1 (antibody)
heavy: QVQLVESGGGVVQPGRSLRLSCAASGFTFSSYGMHWVRQAPGKGLEWVAVIWYEGSNKYYADSVKGRFTISRDNSKNTLYLQMNSLRAEDTAVYYCARGGSMVRGDYYYGMDVWGQGTTVTVSSASTKGPSVFPLAPSSKSTSGGTAALGCLVKDYFPEPVTVSWNSGALTSGVHTFPAVLQSSGLYSLSSVVTVPSSSLGTQTYICNVNHKPSNTKVDKRVEPKSCDKTHTCPPCPAPEAEGAPSVFLFPPKPKDTLMISRTPEVTCVVVDVSHEDPEVKFNWYVDGVEVHNAKTKPREEQYNSTYRVVSVLTVLHQDWLNGKEYKCKVSNKALPSSIEKTISKAKGQPREPQVYTLPPSREEMTKNQVSLTCLVKGFYPSDIAVEWESNGQPENNYKTTPPVLDSDGSFFLYSKLTVDKSRWQQGNVFSCSVMHEALHNHYTQKSLSLSPG
light: AIQLTQSPSSLSASVGDRVTITCRASQGISSALAWYQQKPGKAPKLLIYDASSLESGVPSRFSGSGSGTDFTLTISSLQPEDFATYYCQQFNSYPYTFGQGTKLEIKRTVAAPSVFIFPPSDEQLKSGTASVVCLLNNFYPREAKVQWKVDNALQSGNSQESVTEQDSKDSTYSLSSTLTLSKADYEKHKVYACEVTHQGLSSPVTKSFNRGEC
notes: 28F3 variable regions with effectorless IgG1.1 constant region; also called 28.IgG1.1
